How the values were obtained:
[1] = biological target: T1, Kappa-type opioid receptor (Homo sapiens, UniProt P41145); assay: Antagonist activity against human kappa opioid receptor expressed in human U2OS cells co-expressing beta-arrestin2 pre-treated for 15 mins before U69,593 stimulation for 90 mins by DiscoveRx beta-arrestin2 recruitment based PathHunter assay relative to control; type: cell-based; parameters: concentration or dose not given beside the values
Procedure, shortened: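 U2OS-hKOR-βarrestin2 PathHunter cells, 5,000 per well, plated overnight in Opti-MEM with 1% FBS. Antagonist pretreatment 15 min at 37 °C, then 1 μM U69,593 for 90 min at 37 °C. Detection reagent 60 min at room temperature; chemiluminescence read-out. Concentration-response curves fitted by three-parameter regression; n ≥ 3 independent experiments.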

By UniProt entry, the sequences of proteins in these tests, tags left out. Where a name states a change or a piece, a line headed by the entry shows the natural chain unless it says otherwise.
UniProt P41145: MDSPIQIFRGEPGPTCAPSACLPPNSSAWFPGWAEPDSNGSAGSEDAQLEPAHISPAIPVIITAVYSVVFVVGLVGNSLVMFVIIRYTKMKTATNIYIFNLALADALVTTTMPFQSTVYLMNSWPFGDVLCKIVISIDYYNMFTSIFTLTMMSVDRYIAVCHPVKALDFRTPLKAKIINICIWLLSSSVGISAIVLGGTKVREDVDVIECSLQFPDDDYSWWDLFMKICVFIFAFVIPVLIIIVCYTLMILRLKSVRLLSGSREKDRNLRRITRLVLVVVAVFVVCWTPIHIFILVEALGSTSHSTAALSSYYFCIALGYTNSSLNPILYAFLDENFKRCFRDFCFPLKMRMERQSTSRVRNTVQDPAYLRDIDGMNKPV

[2] = biological target: T1, Kappa-type opioid receptor; assay: Antagonist activity against HA-tagged human recombinant kappa opioid receptor expressed in CHO cells assessed as inhibition of U69,593-induced ERK phosphorylation pre-incubated with compound before U69,593 stimulation for 10 mins relative to control; type: cell-based; parameters: concentration or dose not given beside the values
Procedure, shortened: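 hKOR-CHO cells, 15,000 per well, plated overnight at 37 °C and serum-starved 1 h. Compound added, then 100 nM U69,593 for 10 min at 37 °C. Fixed cells stained overnight at 4 °C for phospho- and total ERK1/2. In-cell western read by infrared imaging at 700/800 nm. Three-parameter nonlinear fit; 2–4 replicates per experiment, n ≥ 3.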

inhibition [1]: > 86%
inhibition [2]: > 86%
SMILES: Cc1ccc(S(=O)(=O)N(C)Cc2ccc(C(=O)N(C)CCN(Cc3ccccc3)C(C)C)cc2)cc1

— ChEMBL document CHEMBL3588796, “Potency enhancement of the κ-opioid receptor antagonist probe ML140 through sulfonamide constraint utilizing a tetrahydroisoquinoline motif” (Bioorg Med Chem, 2015)
